Binding of CDR-mutated scFvs to a peptide of the spike HR2 region

The measurements come from Li et al. 2023 (doi:10.1038/s41467-023-39022-2) through the FLAb antibody collection.

Target peptide (SARS-CoV-2 spike, HR2 region): PDVDLGDISGINAS

Parent scFv Ab-14: VH joined to VL by three GGGGS repeats. Changes lie in the heavy chain CDRs alone.
VH: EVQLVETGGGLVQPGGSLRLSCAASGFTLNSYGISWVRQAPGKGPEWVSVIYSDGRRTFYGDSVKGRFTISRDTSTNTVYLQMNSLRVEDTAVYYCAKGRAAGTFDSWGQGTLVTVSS
VL: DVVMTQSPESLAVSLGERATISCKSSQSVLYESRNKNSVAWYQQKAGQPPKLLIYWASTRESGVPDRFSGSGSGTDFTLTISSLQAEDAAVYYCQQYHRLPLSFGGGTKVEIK

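Designed CDR sequences, proposed from the first random library and measured here. Group labels follow the data file (Ctrl: baseline library sampled from a position-specific scoring matrix, with some repeated check sequences; En: ensemble of fine-tuned language models; GP: Gaussian process model; GPLM: also part of the Gaussian process libraries; HC: hill climbing; Gen: genetic algorithm; Gibbs: Gibbs sampling; a sequence that several methods proposed may carry one label only). AlphaSeq pools MATa yeast showing the antibodies with MATalpha yeast showing the peptide. Pairs that bind mate more often; barcode pairs of the diploids are counted by sequencing. Scores were corrected for input abundance and mapped to Kd with protein pairs of known affinity run in the same pool. The assay was run in six technical replicates.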

Each variant's VH is given in full.
Values are apparent Kd, the geometric mean of the replicates that gave a signal; lower means stronger binding.
An entry "not detected" has no value in the source: the pair was not observed among the diploids in any replicate. This suggests poor binding but is not conclusive.
Order: sorted from the lowest average up, undetected variants last.
The authors averaged sequences with at least three values out of six and counted those with two or fewer as poor binders.
As a blank, each scFv also met three strains without target: over all heavy chain designs, 1% of these pairings were detected, typically at 120 nM and seldom below 7.0 nM. The control count says in how many pairings with the empty strains this scFv gave a signal.
Of ten entries with the parent sequence, four were seen in most replicates (averages 2.2 nM to 240 nM), three in one and three in none, so single entries are noisy.
Values of this round are not directly comparable with the first-round values of the same sequences.

VH | group | Kd (apparent) | detected | empty controls
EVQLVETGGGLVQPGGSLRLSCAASGFDLNEYGISWVRQAPGKGPEWVSVIYADGMRTAYADSVKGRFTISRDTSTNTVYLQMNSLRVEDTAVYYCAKGEHAGTFDIWGQGTLVTVSS | En_Gen | 80 pM | 6 of 6 | 0 of 18
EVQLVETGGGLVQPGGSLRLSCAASGFDLNEYGISWVRQAPGKGPEWVSVIYADGMRTFYADSVKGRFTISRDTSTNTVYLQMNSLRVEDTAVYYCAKGEHAGTFDIWGQGTLVTVSS | En_HC | 100 pM | 6 of 6 | 0 of 18
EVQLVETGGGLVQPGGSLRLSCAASGFDLNEYGISWVRQAPGKGPEWVSVIYADGQRTAYADDVKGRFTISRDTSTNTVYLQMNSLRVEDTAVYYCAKGQNAGTFDVWGQGTLVTVSS | En_Gen | 140 pM | 6 of 6 | 0 of 18
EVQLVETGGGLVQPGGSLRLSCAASGFDLNEYGISWVRQAPGKGPEWVSVIYADGKRTAYADSVKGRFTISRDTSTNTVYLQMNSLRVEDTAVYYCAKGKVAGTFDVWGQGTLVTVSS | En_Gen | 160 pM | 6 of 6 | 0 of 18
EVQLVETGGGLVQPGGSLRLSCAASGFDLNEYGISWVRQAPGKGPEWVSVIYADGQRTAYADSVKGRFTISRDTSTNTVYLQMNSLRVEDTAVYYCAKGKAAGTFDLWGQGTLVTVSS | En_HC | 210 pM | 6 of 6 | 0 of 18
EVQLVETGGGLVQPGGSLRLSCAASGFDLNEYGISWVRQAPGKGPEWVSVIYADGMRTAYIDSVKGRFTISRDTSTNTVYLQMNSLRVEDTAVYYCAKGHAAGTFDVWGQGTLVTVSS | En_HC | 400 pM | 6 of 6 | 0 of 18
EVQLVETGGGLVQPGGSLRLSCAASGFDLNEYGISWVRQAPGKGPEWVSVIYADGQRTAYADNVKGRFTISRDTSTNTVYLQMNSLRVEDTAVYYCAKGETAGTFDLWGQGTLVTVSS | En_Gen | 460 pM | 6 of 6 | 0 of 18
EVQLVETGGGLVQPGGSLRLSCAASGFSLNEYGISWVRQAPGKGPEWVSVIYSDGRRTFYGDSVKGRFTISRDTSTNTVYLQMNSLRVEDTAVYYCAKGRTAGTFDVWGQGTLVTVSS | GPLM_Gen | 860 pM | 6 of 6 | 1 of 18
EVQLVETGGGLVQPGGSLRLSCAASGFTLNEYGISWVRQAPGKGPEWVSVIYSDGYRTFYSDSVKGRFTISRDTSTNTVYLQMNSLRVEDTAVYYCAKGRAAGTFDSWGQGTLVTVSS | GP_HC | 1.4 nM | 6 of 6 | 0 of 18
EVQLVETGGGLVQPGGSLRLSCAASGTTLNSYGVSWVRQAPGKGPEWVSVIYSDGRRTFYGDSVKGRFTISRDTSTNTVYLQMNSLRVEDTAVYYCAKGRAKGTFDSWGQGTLVTVSS | Ctrl | 3.8 nM | 1 of 6 | 0 of 18
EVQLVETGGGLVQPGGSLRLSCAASGFDLNEYGISWVRQAPGKGPEWVSVIYADGRRKFYADSVKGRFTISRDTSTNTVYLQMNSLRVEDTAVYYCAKGQNAGTFDVWGQGTLVTVSS | En_HC | 7.0 nM | 6 of 6 | 0 of 18
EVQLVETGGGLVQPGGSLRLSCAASGFTLKSHGISWVRQAPGKGPEWVSVIYSDGFRTFYGDSVKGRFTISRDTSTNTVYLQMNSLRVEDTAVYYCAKGRAAGTGDSWGQGTLVTVSS | Ctrl | 22 nM | 1 of 6 | 0 of 18
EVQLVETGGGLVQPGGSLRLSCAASGFTLNSYGISWVRQAPGKGPEWVSVIYSDGRRTFYGDSVKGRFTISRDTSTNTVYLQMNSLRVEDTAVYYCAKGQVTGTFDTWGQGTLVTVSS | GP_Gibbs | not detected | 0 of 6 | 0 of 18
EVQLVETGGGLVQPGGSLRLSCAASGSDLNEYGISWVRQAPGKGPEWVSVIYADGVRVSYAENFKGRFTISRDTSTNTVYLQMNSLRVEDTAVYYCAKGINTGGIAFWGQGTLVTVSS | En_Gibbs | not detected | 0 of 6 | 0 of 18
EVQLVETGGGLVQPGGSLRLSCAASGFELNSYGISWVRQAPGKGPEWVSVIYSDGRRTFYGDSVKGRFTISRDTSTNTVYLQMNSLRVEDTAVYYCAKGKAAGTFDLWGQGTLVTVSS | GP_Gen | not detected | 0 of 6 | 0 of 18

For reference, 2 entries of the list once more:

VH	group	Kd (apparent)	detected	empty controls
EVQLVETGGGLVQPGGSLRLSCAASGFDLNEYGISWVRQAPGKGPEWVSVIYADGMRTAYIDSVKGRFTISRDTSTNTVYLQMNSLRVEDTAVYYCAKGHAAGTFDVWGQGTLVTVSS	En_HC	400 pM	6 of 6	0 of 18
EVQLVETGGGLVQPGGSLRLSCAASGSDLNEYGISWVRQAPGKGPEWVSVIYADGVRVSYAENFKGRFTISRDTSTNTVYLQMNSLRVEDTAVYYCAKGINTGGIAFWGQGTLVTVSS	En_Gibbs	not detected	0 of 6	0 of 18